Data on 1 substance can be found in publication PMC6278801.

Experiment [1] addresses ANF-RGC ΔSHD mutant (rat) (UniProt P18910).
Experiment [2] shares this target. This is another data set of the same source.

In experiment [1], “myristoylated neurocalcin δ (from UniProt P61602 1-193) (natural protein)” had an EC50 of myr-NCδ in modulating guanylate cyclase activity of COS cell membranes, 1 μM Ca^2+ of 400 nM. The guanylate cyclase activity of COS cell membranes at increasing concentrations of myr-NCδ, 1 μM Ca^2+; highest value (5.7-fold) (pmol cGMP min^-1 (mg prot)^-1) in experiment [2] stood at 348.
